The values below are quoted from earlier work in PMC5995653 (Journal of pharmacological and toxicological methods, 2018).

By UniProt entry, the sequences of proteins in these tests, tags left out.
UniProt P31652, whole entry: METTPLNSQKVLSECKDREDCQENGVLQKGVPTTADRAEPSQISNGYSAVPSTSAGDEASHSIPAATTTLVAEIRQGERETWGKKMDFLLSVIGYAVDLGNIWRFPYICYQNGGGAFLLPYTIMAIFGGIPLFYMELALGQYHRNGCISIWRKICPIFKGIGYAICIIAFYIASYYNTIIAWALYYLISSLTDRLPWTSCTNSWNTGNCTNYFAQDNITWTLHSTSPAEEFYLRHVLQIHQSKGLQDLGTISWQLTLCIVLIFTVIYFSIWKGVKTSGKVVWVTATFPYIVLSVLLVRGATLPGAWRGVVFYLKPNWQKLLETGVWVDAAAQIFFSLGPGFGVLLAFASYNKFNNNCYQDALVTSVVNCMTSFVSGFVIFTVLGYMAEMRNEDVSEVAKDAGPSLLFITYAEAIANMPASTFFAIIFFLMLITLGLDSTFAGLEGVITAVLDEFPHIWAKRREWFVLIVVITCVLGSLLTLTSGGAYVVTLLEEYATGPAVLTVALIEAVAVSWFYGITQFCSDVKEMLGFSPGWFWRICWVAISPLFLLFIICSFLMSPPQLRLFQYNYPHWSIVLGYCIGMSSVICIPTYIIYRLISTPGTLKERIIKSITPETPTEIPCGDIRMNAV

Each structure is given as a SMILES string.

The data set concerns the target rSERT (Rattus norvegicus, UniProt P31652). To be noted: read-out: Reuptake inhibition activity IC50, rSERT, synaptosomes; cited from earlier work.

Regarding `c1ccc(CCCN2CCN(CCOC(c3ccccc3)c3ccccc3)CC2)cc1` [GBR12935], the IC50 is 289 ± 29 nM.
